# Yeast mating assay 1: variants of the scFv Ab-14

Values reported by Engelhart et al. 2022, doi:10.1038/s41597-022-01779-4 (FLAb copy).

Target peptide (SARS-CoV-2 spike, HR2 region): PDVDLGDISGINAS

Parent: Ab-14, a human scFv built as VH, three GGGGS repeats, VL. Only the CDRs of the heavy chain vary.
VH: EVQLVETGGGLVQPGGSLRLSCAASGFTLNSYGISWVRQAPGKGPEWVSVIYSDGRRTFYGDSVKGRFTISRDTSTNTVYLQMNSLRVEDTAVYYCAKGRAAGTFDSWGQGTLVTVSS
VL: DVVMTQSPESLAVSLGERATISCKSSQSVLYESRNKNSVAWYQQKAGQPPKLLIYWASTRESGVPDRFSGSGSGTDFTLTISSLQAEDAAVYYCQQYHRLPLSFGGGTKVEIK

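The parent was found by panning a naive human phage display library on the peptide. In library AAYL49, one, two or three CDR residues were substituted; doubles and triples were drawn at random. The scFvs were displayed on barcoded MATa yeast, the peptide on MATalpha yeast. After mating in shaken culture at 30 °C for 16 h, diploids were selected and their barcode pairs sequenced. Read counts were normalised to the haploid input and turned into Kd by a linear fit to BCL2-family pairs of known affinity, for each replicate. There are three technical replicates.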

Substitutions are numbered in sequence along the VH above, starting at 1 (not Kabat).
The read-out is the apparent dissociation constant on a log10 scale (nM): the lower, the stronger.
"nd" means that the variant was in the library but no mating with the target was seen in that replicate; the authors take this as a sign of poor binding, and no number exists.
Three control strains display no target. For library AAYL49, 15% of the pairings with them gave a signal, with a median of 4.06 and one signal in twenty below 2.83, so weak values seen in few replicates may be background. The control count says in how many pairings with the empty strains this scFv gave a signal, with their mean in brackets.
In this assay the parent's reference entry averaged 0.65; its copy inside this library read 4.11 (one replicate of three).

{"changes": "S31P+S53M+A102S", "replicates, log10 nM": "nd nd nd", "control signals": "0 of 9"}
{"changes": "S35W+I51G", "replicates, log10 nM": "nd nd nd", "control signals": "1 of 9 (4.37)"}
{"changes": "S31C+G99Y+D106H", "replicates, log10 nM": "nd nd nd", "control signals": "2 of 9 (4.12)"}
{"changes": "I34L+F59S+A101Q", "replicates, log10 nM": "2.04 1.72 2.12", "control signals": "1 of 9 (2.64)"}
{"changes": "I34P+D62V+R100T", "replicates, log10 nM": "nd nd nd", "control signals": "1 of 9 (4.41)"}
{"changes": "T28D+D62T+G103A", "replicates, log10 nM": "0.76 0.91 0.77", "control signals": "0 of 9"}
{"changes": "G26M+T28M+F105T", "replicates, log10 nM": "3.43 nd nd", "control signals": "0 of 9"}
{"changes": "G55L+Y60C+G99C", "replicates, log10 nM": "nd nd nd", "control signals": "4 of 9 (3.94)"}
{"changes": "S35G+R57Q+V64R", "replicates, log10 nM": "3.74 5.23 nd", "control signals": "4 of 9 (3.94)"}
{"changes": "F27D+V50W+R57Q", "replicates, log10 nM": "3.63 nd 4.21", "control signals": "5 of 9 (4.15)"}
{"changes": "S31P+S35H+R56G", "replicates, log10 nM": "nd nd nd", "control signals": "0 of 9"}
{"changes": "L29S+Y32M", "replicates, log10 nM": "nd nd nd", "control signals": "0 of 9"}
{"changes": "G26E+A101Q+A102G", "replicates, log10 nM": "1.24 1.55 1.44", "control signals": "0 of 9"}
{"changes": "Y32R+S35K+S107P", "replicates, log10 nM": "4.75 nd 3.95", "control signals": "2 of 9 (4.40)"}
{"changes": "G55S+R57H+S63W", "replicates, log10 nM": "nd nd nd", "control signals": "0 of 9"}
{"changes": "S35L+D62C+G103K", "replicates, log10 nM": "nd nd nd", "control signals": "0 of 9"}
{"changes": "G26N+G61V+S63M", "replicates, log10 nM": "nd 3.39 nd", "control signals": "1 of 9 (3.76)"}
{"changes": "F27L+Y60R", "replicates, log10 nM": "nd nd 5.51", "control signals": "1 of 9 (3.71)"}
{"changes": "V50E+S53W+T104E", "replicates, log10 nM": "nd nd nd", "control signals": "1 of 9 (2.21)"}

A selection of 3 entries from above:

changes	replicates, log10 nM	control signals
G55L+Y60C+G99C	nd nd nd	4 of 9 (3.94)
F27D+V50W+R57Q	3.63 nd 4.21	5 of 9 (4.15)
G26E+A101Q+A102G	1.24 1.55 1.44	0 of 9